# Source: PubChem
# Shown are actives, neighbours in structure and some others; about 2.3% of the full set was active somewhere.
# MC4R antagonist = blocks human MC4R cAMP signaling; P32245; MC4R-expressing cells, MTII-stimulated cAMP, LANCE TR-FRET; inhibition, % at 6.5 µM; 360,000 tested, 0.48% active; AID 540295;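 active = inhibition above its plate's cutoff, the mean of tested wells on that plate plus 3 SD, cut at about 29% in these data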;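 note: 0% = Melanotan II alone and 100% = Melanotan II plus saturating MCL0020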
#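 system = U2OS cells with stable human MC4R expression | also added = Melanotan II challenge after compound preincubation | dosing = one concentration, 6.5 µM nominal | incubation = compound 30 min, challenge 1 h, detection 1 h | measured by = TR-FRET with Eu-cAMP and labeled anti-cAMP, 671 nm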
# MC4R ag barr = agonists of human melanocortin 4 receptor (MC4R) beta-arrestin; U2OS MC4R beta-arrestin complementation, luminescence; percent of melanotan II response, DMSO zero; activation, % at 8.9 µM; 360,000 tested, 0.98% active; AID 540308;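 active = activation above a per-plate cutoff, the mean activation of sample wells on that plate plus 3 SD, cut at about 8% in these data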
# NRP1-CendR mod = alters CendR peptide binding to human NRP-1; FAM-RPARPAR peptide binding to NRP-1, fluorescence polarization; inhibition, % at 25 µM; 360,000 tested, 0.85% active;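 active = inhibition or corrected inhibition above about 18%, plus a signal ratio from 0.5 to 1.5, limit read from the data, passing the limit was not always enough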
# UUG fidelity = modulators of start codon recognition fidelity in yeast. S. cerevisiae UUG-firefly luciferase reporter, luminescence/redox ratio. activity score, % at 18.7 µM. 0.13% of 350,000 active. AID 602363;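 active = replicate mean at a twofold rise or more, about +100% in these data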;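 also: firefly luciferase made from a UUG start codon reports start codon fidelity; reporter light over untreated wells divided by growth signal over untreated wells; some hits fall short of that in this replicate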
# ARFGAP1 inhibitor = inhibits rat ARF GTPase activating protein 1; inhibition, % at 16.5 µM; AID 651572; 360,000 tested, 0.26% active; Q62848; Arfgap1-stimulated ARF1 GTP hydrolysis, GDP FP detection;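 active = inhibition above a per-plate limit, mean inhibition of low control wells plus 3 SD, cut at about 25% in these data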;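 note: 0% = DMSO wells with enzyme and 100% = wells lacking Arfgap1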
#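 material = rat Arfgap1 catalytic domain, aa 1-136 | also added = human ARF1(Δ1-17)-GTP substrate | compound dosing = one concentration, 16.5 µM, DMSO 1.26% | times = GTP hydrolysis reaction 2 h at 25 °C | measured by = FP, GDP Alexa 633 tracer displaced from anti-GDP antibody, 620/688 nm | evaluation = percent inhibition of Arfgap1-stimulated GTP hydrolysis | replication = single well per compound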
# ASAP1 GAP inh = ASAP1 ArfGAP inhibition; AID 624377; Q9ULH1; ASAP1-stimulated ARF1 GTP hydrolysis, GDP FP detection; inhibition, % at 16.5 µM; 360,000 tested, 0.19% active; in the data active = inhibition above about 25%;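 note: 0% = vehicle with enzyme and substrate and 100% = no enzyme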
# MC4R barr ag = human MC4R beta-arrestin agonism confirmation; shares compounds with MC4R ag barr; U2OS MC4R beta-arrestin recruitment, luminescence; scaled DMSO 0%, Melanotan II 100%; activation, % at 8.9 µM; 2,400 tested, 31% active; AID 602192;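 active = mean activation across replicates above the hit cutoff set in the earlier primary screen, cut at about 8% in these data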
# MOR-DOR barr ag = counter-screen for MC4R agonists: agonists of mu-delta opioid heterodimer; shares compounds with MC4R ag barr; U2OS PathHunter beta-arrestin, beta-gal luminescence; percent of deltorphin B response, DMSO zero; activation, % at 9.2 µM; 2,400 tested, 5.8% active;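 active = mean activation across replicates exceeds the hit threshold derived in the earlier primary screen, cut at about 18% in these data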;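 note: 100% = deltorphin B at 0.9 µM final and 0% = DMSO alone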
# * hit, by the source's call; / = no result.
# Labels used below – A = MC4R antagonist; B = MC4R ag barr; C = NRP1-CendR mod; D = UUG fidelity; E = ARFGAP1 inhibitor; F = ASAP1 GAP inh; G = MC4R barr ag; H = MOR-DOR barr ag
COc1ccc(C2CC(c3ccc(Cl)cc3Cl)n3nc(N)nc3N2)cc1 (stereo unspecified)
  A: 5 | B: 15* | C: -6 | D: -14 | E: -1 | F: 5 | G: 13* | H: 7
CSc1ncccc1C(=O)OCc1ccc([N+](=O)[O-])cc1
  A: 2 | B: 12* | C: 2 | D: -10 | E: 3 | F: -6 | G: 1 | H: 3
C[C@@H]1CCCCO[C@H](CN(C)Cc2ccccc2)[C@H](C)CN([C@H](C)CO)C(=O)c2cc(NC(=O)Nc3cccc4ccccc34)ccc2O1
  A: / | B: / | C: / | D: 0 | E: / | F: / | G: / | H: /
O=C(Nc1cccc(Cl)c1)c1csc(-c2ccccc2)n1
  A: 1 | B: 2 | C: 6 | D: -12 | E: 12 | F: 8 | G: / | H: /
O=C(Nc1ccc(Cl)c(Cl)c1)c1ccc(Cl)c(Cl)c1
  A: -3 | B: 14* | C: -3 | D: -19 | E: 4 | F: 4 | G: 8 | H: 12
O=C(Nc1ccc(Cl)c(Cl)c1)c1csc(-c2ccccc2)n1
  A: 4 | B: 20* | C: -23 | D: -12 | E: 2 | F: 2 | G: 6 | H: 3
CCCc1cc(=O)oc2c(C)c(OCC(=O)Nc3ccc(CN4CCOCC4)cc3)ccc12
  A: -2 | B: 16* | C: -4 | D: -7 | E: -2 | F: 22 | G: -1 | H: 2
O=C(Nc1cccc(Cl)c1)N1CCN(C/C=C/c2ccccc2)CC1
  A: 5 | B: 9.6* | C: 2 | D: / | E: 1 | F: 8 | G: 6 | H: 7
C[C@@H]1CCCCO[C@H](CN(C)Cc2ccccc2)[C@@H](C)CN([C@@H](C)CO)C(=O)c2cc(NS(=O)(=O)c3ccc(Cl)cc3)ccc2O1
  A: / | B: / | C: / | D: 21 | E: / | F: / | G: / | H: /
CCC(C)NC(=O)c1c(N)n(/N=C/c2cccnc2)c2nc3ccccc3nc12 (stereo unspecified)
  A: 10 | B: 13* | C: 1 | D: -6 | E: 2 | F: -1 | G: 28* | H: 6
CCC(C)NC(=O)c1c(N)n(/N=C/c2ccccn2)c2nc3ccccc3nc12 (stereo unspecified)
  A: 5 | B: 5 | C: -8 | D: -5 | E: 9 | F: 16 | G: / | H: /
COCCCNC(=O)c1c(N)n(/N=C/c2cccnc2)c2nc3ccccc3nc12
  A: 3 | B: 10* | C: 4 | D: -10 | E: 15 | F: 17 | G: 5 | H: 5
C[C@@H]1CN([C@@H](C)CO)C(=O)c2cc(NC(=O)Nc3cccc4ccccc34)ccc2O[C@@H](C)CCCCO[C@@H]1CN(C)S(=O)(=O)c1ccc(F)cc1
  A: / | B: / | C: / | D: -9 | E: / | F: / | G: / | H: /
CO[C@H]1CN(C)C(=O)c2ccc(NS(=O)(=O)c3ccc(Cl)cc3)cc2OC[C@@H](C)N(C(=O)NC(C)C)C[C@H]1C
  A: / | B: / | C: / | D: 27 | E: / | F: / | G: / | H: /
CCCCN1CC(O)=C(c2nc(-c3ccc(Br)cc3)cs2)C1=N
  A: 14 | B: 1 | C: -10 | D: -15 | E: -15 | F: 3 | G: / | H: /
CCOC(=O)CCCN1CC(O)=C(c2nc(-c3ccc(Cl)cc3)cs2)C1=N
  A: 0 | B: 23* | C: -6 | D: / | E: 3 | F: 8 | G: 5 | H: 2
c1ccc(OCCCn2nnc(-c3ccc(N4CCOCC4)cc3)n2)cc1
  A: -2 | B: 17* | C: 14 | D: -11 | E: 3 | F: -16 | G: 3 | H: 12
Cc1nc(-c2cccnc2)sc1C(=O)N/N=C/c1ccccc1Cl
  A: -7 | B: 11* | C: -2 | D: -6 | E: 7 | F: 7 | G: -1 | H: 4
Cc1nc(-c2cccnc2)sc1C(=O)Nc1ccc(Cl)cc1
  A: 2 | B: -1 | C: -10 | D: -20 | E: 6 | F: -7 | G: / | H: /
CO[C@H]1CN(C)C(=O)c2cc(NC(=O)C3CCCC3)ccc2OC[C@H](C)N(S(C)(=O)=O)C[C@H]1C
  A: / | B: / | C: / | D: 14 | E: / | F: / | G: / | H: /
Cc1nc2c(ccc3nc(NC(=O)c4ccc5c(c4)OCCO5)sc32)s1
  A: 6 | B: 11* | C: -24 | D: / | E: -6 | F: 10 | G: -3 | H: 5
Cc1nc(NC(=O)c2cc3ccccc3o2)ccc1Br
  A: 0 | B: 11* | C: 5 | D: -2 | E: 1 | F: 1 | G: 0 | H: 3
Cc1nc(NC(=O)c2ccc(Br)o2)ccc1Br
  A: -4 | B: -1 | C: 8 | D: -13 | E: 1 | F: -11 | G: / | H: /
CCc1ccc(N=C2NC(=O)/C(=C/c3cc(OC)c(O)c(OC)c3)S2)cc1
  A: 2 | B: 14* | C: -118 | D: -9 | E: -8 | F: -7 | G: 13* | H: 7
COc1cc(/C=C(\C#N)c2nc3ccccc3s2)ccc1OCC(=O)Nc1ccccc1
  A: 3 | B: 49* | C: -118 | D: / | E: / | F: / | G: 30* | H: 10
C[C@@H]1CN([C@@H](C)CO)C(=O)c2cc(NC(=O)CCC(F)(F)F)ccc2O[C@@H]1CN(C)S(=O)(=O)c1ccccc1
  A: / | B: / | C: / | D: -99 | E: / | F: / | G: / | H: /
O=C(NCc1ccc2c(c1)OCO2)Nc1ccc2ccccc2c1
  A: -4 | B: 11* | C: 11 | D: -8 | E: 7 | F: 0 | G: 0 | H: 5
C[C@H](CO)N1C[C@H](C)[C@H](CN(C)C(=O)Cc2ccncc2)Oc2cc(C#CC3CCCC3)ccc2S1(=O)=O
  A: / | B: / | C: / | D: 10 | E: / | F: / | G: / | H: /
FC(F)Sc1ccc(NC(=S)NCc2ccccc2)cc1
  A: 10 | B: 2 | C: -2 | D: -24 | E: 4 | F: 1 | G: / | H: /
FC(F)Sc1ccc(NC(=S)NC(c2ccccc2)c2ccccc2)cc1
  A: 13 | B: 9.6* | C: -1 | D: / | E: 8 | F: 5 | G: 4 | H: 9

# 3 entries from above, in CSV form:
smiles,MC4R antagonist,MC4R ag barr,NRP1-CendR mod,UUG fidelity,ARFGAP1 inhibitor,ASAP1 GAP inh,MC4R barr ag,MOR-DOR barr ag
CO[C@H]1CN(C)C(=O)c2cc(NC(=O)C3CCCC3)ccc2OC[C@H](C)N(S(C)(=O)=O)C[C@H]1C,/,/,/,14,/,/,/,/
Cc1nc2c(ccc3nc(NC(=O)c4ccc5c(c4)OCCO5)sc32)s1,6,11*,-24,/,-6,10,-3,5
Cc1nc(NC(=O)c2cc3ccccc3o2)ccc1Br,0,11*,5,-2,1,1,0,3

# Further compounds
# Labels used below – A = MC4R antagonist; B = MC4R ag barr; C = NRP1-CendR mod; D = UUG fidelity; E = ARFGAP1 inhibitor; F = ASAP1 GAP inh; G = MC4R barr ag; H = MOR-DOR barr ag
O=C(O)C1CCN(c2nc(-c3ccccc3)nc3c2oc2ccccc23)CC1
  A: 17 | B: -4 | C: -11 | D: -4 | E: -2 | F: -11 | G: / | H: /
OCCN1CCN(c2nc(-c3ccccc3)nc3c2oc2ccccc23)CC1
  A: 2 | B: 23* | C: 4 | D: -2 | E: -2 | F: -4 | G: 15* | H: 11
Cc1ccc(-c2csc(NC(=O)CSc3nnc4c(n3)[nH]c3ccccc34)n2)cc1
  A: -5 | B: 16* | C: 0 | D: / | E: 9 | F: 0 | G: 3 | H: 7
Cc1cc(-c2nnc(SCC(=O)Nc3nc(-c4ccccc4)cs3)o2)no1
  A: 0 | B: 3 | C: -13 | D: -19 | E: 8 | F: 11 | G: / | H: /
Cc1occc1-c1nnc(SCC(=O)Nc2nc(-c3ccccc3)cs2)o1
  A: -3 | B: 24* | C: -8 | D: -9 | E: -1 | F: 20 | G: 2 | H: 5
FC(F)(F)c1cc(-c2cccs2)nc2cc(-c3cccs3)nn12
  A: 1 | B: 25* | C: -1 | D: -12 | E: 0 | F: -8 | G: 2 | H: 4
C=CC[C@@H](CC(=O)N[C@@H](CO)Cc1ccccc1)C(=O)N[C@@H](COC(=O)[C@@H](CC=C)CC(=O)OC(C)(C)C)Cc1c[nH]c2ccccc12
  A: 9 | B: 15* | C: -15 | D: 5 | E: -2 | F: 3 | G: 3 | H: 5
O=C(CCCn1c(SCC(=O)c2ccc(F)cc2)nc2ccccc2c1=O)NCc1ccccc1
  A: 12 | B: 24* | C: 4 | D: -6 | E: 11 | F: -2 | G: 2 | H: 13
Cc1cc(NC(=O)CSc2nc3ccccc3c(=O)n2CCCC(=O)NCc2ccccc2)n[nH]1
  A: -10 | B: 2 | C: 6 | D: -7 | E: -7 | F: 6 | G: / | H: /
